Experimental data reported in US7803381B2, “Retro-inverso gonadotropin-releasing hormone peptide and vaccine composition” (Shimoda Biotech (Pty) Ltd., priority 2002, dated 2010).

The chains behind the UniProt entries cited, without tags or fusion partners. Where a name states a change or a piece, a line headed by the entry shows the natural chain unless it says otherwise.
UniProt P01148: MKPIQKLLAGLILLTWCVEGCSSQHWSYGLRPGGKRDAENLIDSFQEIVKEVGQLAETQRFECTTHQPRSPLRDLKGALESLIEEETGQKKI

Target: T1, GnRH (Homo sapiens, UniProt P01148)
T1 construct: made in house; host or cells: chemical solid-phase synthesis (University of Cape Town); receptor expressed in transfected COS-1 cells
Experiment: Antiserum/antibody inhibition of GnRH stimulated IP accumulation in COS-1 cells transfected with human GnRH receptor
Assay type: cell-based, mammalian
Settings: 0.3 nM GnRH; read-out: antibody concentration inhibiting 50% of GnRH-stimulated IP accumulation
Method: The transfected COS-1 cells (2×10^5 cells/well) were incubated overnight in 0.5 ml Medium 199 (Life Technologies Inc.) with antibiotics and myo-[2-^3H] inositol (1 μCi/well, Amersham Pharmacia Biotech) as previously described. The labelled cells were incubated with various concentrations of GnRH-analogs for one hour at 37° C. in the presence of LiCl as described. Aspirating the medium and addition of 10 mM formic acid (1 ml/well) terminated the incubation. Inositol phosphates separated from the formic acid extract on DOWEX-1 ion exchange columns and eluted into scintillation liquid (Quicksafe, Zinsser Analytical, Frankfurt, Germany) and the radioactivity was counted. […] Serum from the same rabbits before immunisation was also tested. […] After one hour the incubation was terminated with formic acid and inositol phosphates were separated and counted as described. […] The mixture was added to labelled cells, and the inhibition of IP production was calculated. […] Purified anti-RI-GnRH antibodies were tested for their ability to discriminate among GnRH, [[…]]GnRH, and GnRH II. […] Stimulating with these concentrations [half-maximal effective concentrations (EC50)] in the absence of antibody produced similar levels of IP counts. […] The mixture was added to labelled cells and the inhibition of IP production calculated as described. […]

IC50: 2.2 nM
Substance: glycine
